Experimental data: ChEMBL document CHEMBL4706749, “Development of Fluorescence Imaging Probes for Labeling COX-1 in Live Ovarian Cancer Cells” (ACS Med Chem Lett, 2021)

By UniProt entry, the sequences of proteins in these tests, tags left out.
UniProt P23219, whole entry: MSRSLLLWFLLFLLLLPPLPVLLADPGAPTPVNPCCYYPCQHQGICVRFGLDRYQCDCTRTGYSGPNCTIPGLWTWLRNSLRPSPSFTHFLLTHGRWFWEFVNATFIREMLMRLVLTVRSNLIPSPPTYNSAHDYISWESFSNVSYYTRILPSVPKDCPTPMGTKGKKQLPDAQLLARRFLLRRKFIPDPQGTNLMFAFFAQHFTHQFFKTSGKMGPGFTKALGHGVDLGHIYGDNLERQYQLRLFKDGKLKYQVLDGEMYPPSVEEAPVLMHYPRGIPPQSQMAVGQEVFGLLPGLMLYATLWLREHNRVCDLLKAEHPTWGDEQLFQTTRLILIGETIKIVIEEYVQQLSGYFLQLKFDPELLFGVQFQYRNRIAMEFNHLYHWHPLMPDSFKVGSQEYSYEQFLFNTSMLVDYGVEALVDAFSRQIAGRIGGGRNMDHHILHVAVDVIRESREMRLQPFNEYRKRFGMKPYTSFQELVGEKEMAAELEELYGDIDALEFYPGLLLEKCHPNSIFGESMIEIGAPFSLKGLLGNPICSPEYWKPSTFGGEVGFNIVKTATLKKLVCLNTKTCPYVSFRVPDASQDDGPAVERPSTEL

Biological target: T1, Prostaglandin G/H synthase 1 (Homo sapiens, UniProt P23219)

IC50 [nM]	SMILES
480	COc1ccc(C2=C(c3cccc(F)c3)C(=O)OC2)cc1

Biological target: T1, Prostaglandin G/H synthase 1
Format: cell-based, OVCAR-3
Remark: another data set of the same source

IC50 [nM]	SMILES
5000	Nc1cc(-c2ccco2)nn1-c1ccc(F)cc1
5400	COc1ccc(-n2nc(-c3ccco3)cc2N)cc1
20500	Nc1cc(-c2ccco2)nn1-c1ccc(Cl)cc1
1100	CC(C)c1ccc(-n2nc(-c3ccco3)cc2N)cc1
70	Nc1cc(-c2ccco2)nn1-c1ccc(C(=O)O)cc1

More lines, now with the values behind:

SMILES	IC50 [nM]
Nc1cc(-c2ccco2)nn1-c1ccccc1	5800
O=C(O)c1ccc(-n2nc(-c3ccco3)cc2-n2cc(CNc3ccc([N+](=O)[O-])c4nonc34)nn2)cc1	900
COC(=O)c1ccc(-n2nc(-c3ccco3)cc2N)cc1	90
[N-]=[N+]=Nc1cc(-c2ccco2)nn1-c1ccc(C(=O)O)cc1	400
